The record followed here is ChEMBL document CHEMBL1141984, “Carbonic anhydrase inhibitors. Inhibition of the transmembrane isozyme XII with sulfonamides-a new target for the design of antitumor and antiglaucoma drugs?” (Bioorg Med Chem Lett, 2005).

Protein sequences, listed by entry. Tags and fused reporters are not part of them. Lines headed by an entry give the natural chain unless they say otherwise; changes in a name come on top.
UniProt O43570: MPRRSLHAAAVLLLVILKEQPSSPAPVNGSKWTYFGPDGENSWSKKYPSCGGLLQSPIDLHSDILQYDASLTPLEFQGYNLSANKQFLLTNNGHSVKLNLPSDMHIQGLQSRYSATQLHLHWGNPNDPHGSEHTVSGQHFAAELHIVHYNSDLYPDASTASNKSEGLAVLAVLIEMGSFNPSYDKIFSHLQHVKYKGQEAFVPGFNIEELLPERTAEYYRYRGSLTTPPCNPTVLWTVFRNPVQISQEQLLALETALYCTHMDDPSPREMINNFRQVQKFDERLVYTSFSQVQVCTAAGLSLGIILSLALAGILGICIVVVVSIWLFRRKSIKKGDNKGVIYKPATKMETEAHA

Structures are written as SMILES.

This assay concerns the target Carbonic anhydrase 12 (Homo sapiens, UniProt O43570).

As usually defined, the Ki is a measure of affinity in units of concentration, obtained from inhibition or displacement. In the case of `NS(=O)(=O)c1cc(Cl)c(Cl)c(S(N)(=O)=O)c1` [DICHLORPHENAMIDE], the inhibition constant (Ki) was 50 nM.
